Data as given in US20210230248A1, “Multivalent pharmacophores for high avidity and overexpressed-target specific binding and uses thereof” (priority 2020, published 2021).
Like-named read-outs stand apart in the source and are kept apart here.

By UniProt entry, the sequences of proteins in these tests, tags left out. Residues count along the entry.
UniProt Q9NZQ7, 19-290: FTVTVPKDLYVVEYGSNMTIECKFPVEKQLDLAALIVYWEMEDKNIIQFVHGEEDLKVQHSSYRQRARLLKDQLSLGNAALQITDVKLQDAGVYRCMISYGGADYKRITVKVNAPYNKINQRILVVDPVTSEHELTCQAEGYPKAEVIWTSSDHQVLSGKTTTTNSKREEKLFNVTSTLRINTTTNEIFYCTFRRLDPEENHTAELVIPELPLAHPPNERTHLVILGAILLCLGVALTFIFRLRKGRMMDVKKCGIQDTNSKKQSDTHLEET

How the values were obtained:
PD-L1 [1] = target: T1, PD-L1 (Homo sapiens, UniProt Q9NZQ7); conditions: isothermal titration calorimetry; Cheng et al. 2013; read-out: Kd PD-1/PD-L1; cited from earlier work
PD-L2 [2] = target: T2, PD-L2 (Homo sapiens, UniProt Q9BQ51); conditions: isothermal titration calorimetry; Cheng et al. 2013; read-out: Kd PD-1/PD-L2; cited from earlier work
T2 sequence (Q9BQ51 20-273): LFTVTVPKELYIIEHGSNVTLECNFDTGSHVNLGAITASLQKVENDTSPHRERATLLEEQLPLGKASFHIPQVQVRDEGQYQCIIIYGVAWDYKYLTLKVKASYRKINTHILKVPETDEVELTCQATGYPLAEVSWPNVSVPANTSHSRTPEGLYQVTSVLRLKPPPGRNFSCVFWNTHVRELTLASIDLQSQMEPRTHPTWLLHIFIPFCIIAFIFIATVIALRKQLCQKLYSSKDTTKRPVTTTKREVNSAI

PD-L1 [3] = target: T1, PD-L1; conditions: Surface Plasmon Resonance; Cheng et al. 2013; read-out: Kd PD-1/PD-L1; cited from earlier work
PD-L2 [4] = target: T2, PD-L2; conditions: Surface Plasmon Resonance; Cheng et al. 2013; read-out: Kd PD-1/PD-L2; cited from earlier work
Human recombinant CD80 = assay: Binding to CD80 coated MSD plate; conditions: 5 nM; plate coated at 40 nM
Procedure: Human recombinant PD-L1, PD-L2 and CD80 (Abcam) at the concentration of 40 nM were coated onto wells of 96-well MSD plate (small spot, 40 μL/well) overnight at 4° C., and then blocked with 3% MSD Blocking Buffer for 1 h. […] The plates were shaken for another 1 h at room temperature. After washing, SULFO-TAG anti-mouse IgG antibody was added into the plates. The plates were further incubated for 1 h and then washed and read after adding 1×MSD Read Buffer. SULFO-TAG anti-human IgG antibody was added into the plate of PD-L1 Fc chimera proteins. The wells without coating were used as background binding.

| binding to CD80 coated plate (Human recombinant CD80) | Substance | Kd (PD-L1 [1]) | Kd (PD-L2 [2]) | Kd (PD-L1 [3]) | Kd (PD-L2 [4]) |
| --- | --- | --- | --- | --- | --- |
| – | PD-1: programmed cell death protein-1; its ectodomain is the ligand of the pharmacophores | 1600 nM | 500 nM | ~8 µM | ~2000 nM |
| observed | PD-L1 Fc chimera: recombinant human PD-L1 Fc chimera protein (R&D Systems) [reference compound] | – | – | – | – |
